# AlphaSeq binding of Ab-14 light chain variants to a spike HR2 peptide

Reference: Li et al. 2023, doi:10.1038/s41467-023-39022-2. File: FLAb, binding data.

All variants were tested on one target, the spike HR2 peptide PDVDLGDISGINAS (SARS-CoV-2).

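The parent was found by panning a naive human phage display library on the peptide. Designed CDR sequences, proposed from the first random library and measured here. Several design methods are mixed in this list. AlphaSeq pools MATa yeast showing the antibodies with MATalpha yeast showing the peptide. Mating (16 h, 30 °C) was followed by selection of diploids and sequencing of their barcodes. Read counts were normalised to the haploid input and turned into Kd by a linear fit to BCL2-family pairs of known affinity, for each replicate. Each pool was mated in six replicate cultures.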

Parent: Ab-14, a human scFv built as VH, the linker GGGGSGGGGSGGGGS, VL. Only the CDRs of the light chain vary.
VH: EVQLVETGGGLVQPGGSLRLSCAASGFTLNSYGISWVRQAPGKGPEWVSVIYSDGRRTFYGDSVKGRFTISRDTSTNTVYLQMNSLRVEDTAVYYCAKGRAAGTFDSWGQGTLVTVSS
VL: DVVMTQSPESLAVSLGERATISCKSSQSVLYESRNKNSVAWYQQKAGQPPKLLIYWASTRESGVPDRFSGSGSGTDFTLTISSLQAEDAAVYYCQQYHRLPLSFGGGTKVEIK

Each variant is given by its three light chain CDRs, as the data file delimits them; those of the parent are KSSQSVLYESRNKNSVA, WASTRES, QQYHRLPLS.
This list holds designs with more than six substitutions.
Affinities are written as log10 Kd with Kd in nM; a lower number is a better binder.
A mean of the replicates is given; it leaves out those without a signal.
An entry "no signal" has no value in the source: the pair was not observed among the diploids in any replicate. This suggests poor binding but is not conclusive.
Of ten entries with the parent sequence, four were seen in most replicates (averages 0.34 to 2.37), three in one and three in none, so single entries are noisy.
The authors averaged sequences with at least three values out of six and counted those with two or fewer as poor binders.
Empty control strains, which show no peptide, gave a signal in 4% of pairings with all light chain designs; the median was 2.64 and 95% of these signals were weaker than 1.59. No background was subtracted. Also given: how often the same scFv was detected with the empty control strains.
The range of this assay differs from that of the first round, and the authors advise against merging the two.

| CDR-L1 | CDR-L2 | CDR-L3 | mean log10 Kd (nM) | seen in | empty controls |
|---|---|---|---|---|---|
| HLSANMWMESSQWDAVA | QGDIAMN | QQYSRLPLS | 0.94 | 6 of 6 | 0 of 18 |
| KISCSEYYEDRNKMSVA | DASQRLS | QQYHRLPLS | -0.02 | 6 of 6 | 0 of 18 |
| LIMKFMSQEGSARNNIA | GDTKLAQ | QHYHRLPLS | no signal | 0 of 6 | 0 of 18 |
| KLSATYRYESQNKNNIA | EMSTRES | QCYHRLPLS | 1.87 | 6 of 6 | 0 of 18 |
| ALELFEYQIMKDLNSIA | NTNTKVN | QQYMRLPFA | 0.63 | 6 of 6 | 0 of 18 |
| MVNGITDHMSKQTNNVA | ETQTREE | QQYDRLPLS | 0.18 | 6 of 6 | 1 of 18 |
| TLGNQPTEMRDNKHAVA | DDNQRDR | QSYMRLPLS | 1.36 | 4 of 6 | 0 of 18 |
| HMSALTLMGSRNRNSVA | QMTTREN | QQYDRLPLV | 1.87 | 6 of 6 | 0 of 18 |
| HLGDTVMQGSYYRNSVA | QESTRAD | QQYHHLPLS | 0.19 | 6 of 6 | 2 of 18 |
| KLMGSMLYEQRMTNSVA | NASVRMS | QQYHRLPLS | 0.62 | 6 of 6 | 2 of 18 |
| HFDQTEQEGIQDKNSVA | QGSQVAS | QHYSKLPLS | 1.79 | 5 of 6 | 0 of 18 |
| ILEENSDDITEQQNSIA | ETNMVYS | QQYHRLPLA | 0.95 | 6 of 6 | 0 of 18 |
| TLGQVTMVESYNKNSVA | QASTREE | QDYHRLPLS | 2.39 | 2 of 6 | 1 of 18 |
| KLQFSCEYESRNKNSVA | MASTRCD | QQYHRLPLS | 1.06 | 6 of 6 | 0 of 18 |
| DVTVVDNGDSKIQNSIA | SGVEKCD | QQYSRLPLA | 1.30 | 6 of 6 | 1 of 18 |
| MVSMNIYGEYRMRDNVA | HASMREK | QCYDRLPLS | 2.16 | 6 of 6 | 1 of 18 |
| NMEGVEFEIAQHGNSVA | GVDLREA | QQYFRLPLH | 1.23 | 6 of 6 | 1 of 18 |
| KLSDNQELQYNKGQSVA | EASEVCI | QQFYRLPLV | 1.70 | 5 of 6 | 0 of 18 |
| MISDLTSYGLRNVNSVA | DLSTRGN | QQYDRLPLS | 0.13 | 6 of 6 | 1 of 18 |
| KWMQSDDQESRNKNSVA | HASTRCQ | QQYHRLPLS | 0.64 | 6 of 6 | 1 of 18 |
| KLMGQGDHSIAHANSIA | NVDNVDA | QQYAHLPLS | 1.19 | 6 of 6 | 0 of 18 |
| KLYFNVGTMSHAKQSIA | DMERRED | QQYHRLPLS | 0.58 | 6 of 6 | 0 of 18 |
| KMSQEVWLESRNVNSVA | MASCRED | QQYHRLPLS | 0.74 | 6 of 6 | 0 of 18 |
| MISNVMNTLTRYGNNVA | DLTEREK | QQYFRLPLS | 1.90 | 3 of 6 | 0 of 18 |
| QIGGLLNFESQKVNNVA | QMETRVN | QQYDRLPLS | 0.47 | 6 of 6 | 0 of 18 |
| TISQMTSLFSQSINNVA | EVSTREP | QQYDRLPLT | 0.85 | 6 of 6 | 1 of 18 |
| KIMQSLNYESFNKSSVA | GQETRER | QSYHRLPLS | 3.21 | 1 of 6 | 0 of 18 |
| IVSQLMLWGYHAKNSIA | EAETRPN | QQYDRLPLM | 0.94 | 6 of 6 | 0 of 18 |
| AFTNSIFYGQRDSNAIA | HADVLEK | QQYFRFPLA | 0.97 | 6 of 6 | 0 of 18 |
| MVTQMAMTGMKNKRSVA | NAETRED | QQYHRLPLI | 1.29 | 5 of 6 | 1 of 18 |
| KFSYSELYEERNQNSVA | GASQRES | QQYHRLPLS | 0.09 | 6 of 6 | 1 of 18 |
| MMSQVTGLGTRHRNNVA | QTSTREE | QQYDRLPLV | 0.38 | 6 of 6 | 0 of 18 |
| MVYQAAMMGTSARNSIA | NAEMRPD | QQYHRLPLI | 0.18 | 6 of 6 | 2 of 18 |
| KINGLMNIEQMNSKSVA | HSSTREN | QQYHRLPLS | 0.33 | 6 of 6 | 1 of 18 |
| MFSQLFMYGSRNYNSVA | QASTRVS | QQYHRLPLI | 1.91 | 6 of 6 | 1 of 18 |
| MVSQLMLWGLHMKNSIA | EAVTRFN | QQYDRLPLI | 2.78 | 1 of 6 | 0 of 18 |
| KLSQYSGGESRNKSSLA | DNSTRES | QQYHRLPLS | 1.33 | 6 of 6 | 0 of 18 |
| KSSMSGEMESRNKNNVA | DASQRES | QQYHRLPLS | -0.47 | 6 of 6 | 0 of 18 |
| KLSFSVWMESRNKNNVA | HASKRES | QQYHRLPLS | 0.77 | 6 of 6 | 0 of 18 |
| MISDLTMYGSRAKNSIA | DLSTRGS | QQYHRLPLS | 0.28 | 6 of 6 | 0 of 18 |
| KYEYSELELSRNKNSVA | NASTREE | QDYHRLPLS | 0.43 | 6 of 6 | 0 of 18 |
| KIGSMTNGEKFQSNSVA | QTSTREE | QQYHRLPLS | 0.13 | 6 of 6 | 2 of 18 |
| TISELYNQALGMRNSVA | NNQTRED | QQYDRLPLS | no signal | 0 of 6 | 0 of 18 |
| KVEQSNDYESRNKQSVA | NASQRLK | QQYHRLPLS | 0.49 | 6 of 6 | 0 of 18 |
| KIDGQRSYQGGRERAIA | DANIRFR | QQYARLPLV | 1.33 | 6 of 6 | 2 of 18 |
| QLAVNRLMEYTMNDAIA | GKTLRVD | QQYARLPLS | -0.14 | 6 of 6 | 0 of 18 |
| MISQLYNMGQFAINSVA | QASQRNT | QQYDRLPLM | 1.64 | 6 of 6 | 0 of 18 |
| TMGQVMNYESRNKNSVA | QTSTREE | QDYDRLPLS | 2.27 | 4 of 6 | 0 of 18 |
| IVTQLMLWGWHAKNSIA | EAQTRIN | QQYDRLPLM | 1.84 | 3 of 6 | 1 of 18 |
| HSSPSEPYESRNKNSVA | NASTREE | QDYHRLPLS | -0.03 | 6 of 6 | 0 of 18 |
| TLSQSMDMTSRNKNSVA | DLTTREN | QQYHRLPLS | -0.45 | 6 of 6 | 1 of 18 |
| MISQIYNMGQFAINSVA | QASVRNA | QQYDRLPLM | 2.11 | 1 of 6 | 0 of 18 |
| HITMGMYVSGRHHSNIA | QAETREK | QQYDRLPLS | 0.75 | 6 of 6 | 0 of 18 |
| NLQLQPREGAQAQNSIA | DVSEADM | QHYARLPLT | no signal | 0 of 6 | 0 of 18 |
| KIAQSMAMTSHHINSVA | QSTTREE | QQYNRLPLA | 0.34 | 6 of 6 | 0 of 18 |
| MISGSVMSESRLHNSVA | QTTTRES | QQYDRLPLS | 0.78 | 6 of 6 | 2 of 18 |
| MMSMGSLGGMRAKNNVA | QEETRES | QQYHRLPLI | 1.64 | 6 of 6 | 1 of 18 |
| KIAQSVAMTSHHINSVA | QSTTREE | QQYNRLPLS | 0.26 | 6 of 6 | 0 of 18 |
| KIGMVLNTLSHKQNNVA | DLVTREN | QQYFRLPLS | 0.64 | 6 of 6 | 1 of 18 |
| KISFQYRYEQLSKNSIA | EAQTRLK | QQYHRLPLE | 0.75 | 6 of 6 | 0 of 18 |
| KFSQSVMYMSSVYNSVA | QMSTRAE | QQYHRLPLS | 0.42 | 6 of 6 | 1 of 18 |
| KLMQSHLYESRMANNVA | SASTREE | QQYHRLPLS | 0.21 | 6 of 6 | 0 of 18 |
| TISQMLLMQTSHKNSVA | GEETRLN | QQYHHLPLS | 0.62 | 6 of 6 | 2 of 18 |
| MISQLYNMGQFAINSVA | QASLRND | QQYDRLPLA | 1.05 | 6 of 6 | 0 of 18 |
| NMGGTKEMQSNNINNIA | EMNERFA | QQYFQLPLS | 0.80 | 6 of 6 | 0 of 18 |
| KLSMITGHSLMSKNNVA | EMETREN | QQYDRLPLS | 0.33 | 6 of 6 | 0 of 18 |
| KLSMMVDYMSATHSSVA | QTSTREE | QQYHRLPLA | 0.61 | 6 of 6 | 0 of 18 |
| KLSQYVGGESRNKSSLA | DNSTRES | QQYQRLPLS | 1.86 | 6 of 6 | 2 of 18 |
| KVAQGIFDGKRNSHSIA | EVSELCT | QQYSRLPLE | 1.10 | 6 of 6 | 0 of 18 |
| RLWQQMYGFNIHANAIA | SGKERYW | QQYARLPLS | 2.28 | 6 of 6 | 0 of 18 |
| KVSQQNLYESRMKNSVA | MASQREM | QQYHRLPLS | 0.82 | 6 of 6 | 1 of 18 |
| IISQSVMGEKRNKNSVA | QTSERNY | QQYDRLPLS | 1.05 | 6 of 6 | 0 of 18 |
| NISESMYYQSRMKNNIA | EMSTRER | QHYHRLPLS | 0.91 | 6 of 6 | 0 of 18 |
| MISQVMNTLTRHGNNVA | DLQEREE | QQYDRLPLS | 1.69 | 6 of 6 | 0 of 18 |
| KLSISWLMESRNKNQVA | HASTRMS | QQYHRLPLS | 1.11 | 6 of 6 | 2 of 18 |
| MFLKEDFQELAAKNAIA | NAREAVT | QHYFRLPLV | 0.72 | 6 of 6 | 0 of 18 |
| KASPSQEYESRNKQSVA | HASLRLE | QQYHRLPLS | 0.53 | 6 of 6 | 0 of 18 |
| KLQLQPLFGAQAQSSIA | DVSEADM | QQYARLPLH | 2.19 | 6 of 6 | 0 of 18 |
| KLQMSEEYGSRNKNSVA | SASQRES | QQYHRLPLS | 0.17 | 6 of 6 | 1 of 18 |

Excerpt, the first 9 entries:

| CDR-L1 | CDR-L2 | CDR-L3 | mean log10 Kd (nM) | seen in | empty controls |
|---|---|---|---|---|---|
| HLSANMWMESSQWDAVA | QGDIAMN | QQYSRLPLS | 0.94 | 6 of 6 | 0 of 18 |
| KISCSEYYEDRNKMSVA | DASQRLS | QQYHRLPLS | -0.02 | 6 of 6 | 0 of 18 |
| LIMKFMSQEGSARNNIA | GDTKLAQ | QHYHRLPLS | no signal | 0 of 6 | 0 of 18 |
| KLSATYRYESQNKNNIA | EMSTRES | QCYHRLPLS | 1.87 | 6 of 6 | 0 of 18 |
| ALELFEYQIMKDLNSIA | NTNTKVN | QQYMRLPFA | 0.63 | 6 of 6 | 0 of 18 |
| MVNGITDHMSKQTNNVA | ETQTREE | QQYDRLPLS | 0.18 | 6 of 6 | 1 of 18 |
| TLGNQPTEMRDNKHAVA | DDNQRDR | QSYMRLPLS | 1.36 | 4 of 6 | 0 of 18 |
| HMSALTLMGSRNRNSVA | QMTTREN | QQYDRLPLV | 1.87 | 6 of 6 | 0 of 18 |
| HLGDTVMQGSYYRNSVA | QESTRAD | QQYHHLPLS | 0.19 | 6 of 6 | 2 of 18 |